System: preosteoclasts
Assay: Induction of differentiation of preosteoclasts (from joint fluid of rheumatoid arthritis patients) into osteoclasts in the absence of accessory cells
Format: cell-based
Settings: cytokine in place of human T-STIM in the medium, 37° C., 48-96 hours, no accessory cells
Experimental: The obtained cellular fraction was cultured in DMEM medium (Gibco BRL, #12430-21 or equivalent) supplemented with 10% (v/v) of fetal calf serum (FCS) in 5-7% CO2-containing air at 37° C. for several weeks. During the culture period, all cells except preosteoclasts died out, and only preosteoclasts survived (FIGS. 1, 2).
In the culture condition, the differentiation of preosteoclasts into osteoclasts was observed (FIG. 1, 2).
Human T-STIM contains a variety of cytokines. In order to identify the cytokine which stimulates differentiation of preosteoclasts into osteoclasts, the differentiation was examined by modifycation the contents of Medium A described as previously in Example 1(3).
The following 16 kinds of medium (B-R) were prepared by using the cytokines shown below, alone or a mixture thereof, instead of human T-STIM contained in Medium A (Example 1(3)). […] According to the sequence, cDNA of eotaxin-3 was obtained as shown in SEQ ID No.1. Recombinant baculovirus containing the sequence was prepared to infect insect cells, then the recombinant eotaxin-3 protein was purified from the culture supernatant.)
The preosteoclasts obtained by Example 1(2) were cultured in the Medium […] described above at 37° C. for 48-96 hours.

Molecule | ability for inducing the differentiation of preosteoclasts
IL-2: recombinant human IL-2 (R & D Systems) | do not have an ability for inducing the differentiation of preosteoclasts
IL-3: recombinant human IL-3 (R & D Systems) (protein, UniProt P08700 20-152, looked up) Interleukin-3: APMTQTTPLKTSWVNCSNMIDEIITHLKQPPLPLLDFNNLNGEDQDILMENNLRRPNLEAFNRAVKSLQNASAIESILKNLLPCLPLATAAPTRHPIHIKDGDWNEFRRKLTFYLKTLENAQAQQTTLSLAIF | have an ability for inducing the differentiation of preosteoclasts

Source: patent US6861257B1, “Methods for isolation of osteoclast precursor cells and inducing their differentiation into osteoclasts” (Shionogi & Co., Ltd., priority 1998, dated 2005)
